This is an account of results in US10869933B2, “Oligomer-phenothiazine conjugates” (Nektar Therapeutics, priority 2009, dated 2020).

The conditions of data set [1]: aqueous pKa, 25° C., average of three measurements.
The next data set is described as follows: Brain:plasma ratio. The settings on record: rats, 5 mg/kg intravenously, one hour after injection; brain (ng/g) / plasma (ng/mL).
The conditions of data set [2]: Partition Log P, average of three measurements.

A word on the pKa: it is the pH at which an ionisable group is half protonated. For orientation: LogP means the decadic logarithm of the partition coefficient of the neutral form, usually between octanol and water. In data set [1], mPEG9-N-promethazine registered a pKa of 8.296. Besides, the “Brain/plasma ratio Mean” value in “Brain:plasma ratio” stood at 0.080. In data set [2], this substance showed a LogP of 2.540.
